How the values were obtained:
[1] = target: T1, 11-beta-hydroxysteroid dehydrogenase 1 (Homo sapiens, UniProt P28845); assay: Inhibition of human 11beta-HSD1 expressed in Escherichia coli by SPA
[2] = target: T1, 11-beta-hydroxysteroid dehydrogenase 1; assay: Inhibition of human 11beta-HSD1 expressed in HEK293 cells by FPIA; format: cell-based
[3] = target: 11-beta-hydroxysteroid dehydrogenase 1 (Mus musculus, UniProt P50172); assay: Inhibition of mouse 11beta-HSD1 expressed in Escherichia coli by SPA

By UniProt entry, the sequences of proteins in these tests, tags left out. Where a name states a change or a piece, a line headed by the entry shows the natural chain unless it says otherwise.
UniProt P28845: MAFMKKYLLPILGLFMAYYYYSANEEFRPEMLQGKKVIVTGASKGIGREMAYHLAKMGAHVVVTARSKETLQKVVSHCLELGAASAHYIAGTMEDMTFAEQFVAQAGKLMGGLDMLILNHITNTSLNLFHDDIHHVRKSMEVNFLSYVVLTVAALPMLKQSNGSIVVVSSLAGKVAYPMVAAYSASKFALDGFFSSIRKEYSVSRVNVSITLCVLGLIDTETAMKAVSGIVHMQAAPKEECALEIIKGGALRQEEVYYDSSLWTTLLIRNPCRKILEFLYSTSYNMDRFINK
UniProt P50172: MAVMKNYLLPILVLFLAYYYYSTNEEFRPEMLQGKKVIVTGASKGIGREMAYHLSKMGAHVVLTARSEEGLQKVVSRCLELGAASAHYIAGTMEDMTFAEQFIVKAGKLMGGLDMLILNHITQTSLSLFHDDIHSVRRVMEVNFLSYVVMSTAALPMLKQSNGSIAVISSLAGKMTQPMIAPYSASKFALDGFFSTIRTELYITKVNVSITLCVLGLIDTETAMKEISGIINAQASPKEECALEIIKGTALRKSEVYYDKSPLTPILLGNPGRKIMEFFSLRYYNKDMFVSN

Ki [1]: 8 nM
IC50 [2]: 46 nM
Ki [3]: 8 nM
Structure (SMILES): CC(C)(C(=O)N[C@H]1C2CC3CC1C[C@](O)(C3)C2)N1CCN(c2ccc(C(F)(F)F)cn2)CC1

Source: ChEMBL document CHEMBL1139224, “Discovery and metabolic stabilization of potent and selective 2-amino-N-(adamant-2-yl) acetamide 11beta-hydroxysteroid dehydrogenase type 1 inhibitors” (J Med Chem, 2007)
